The source of these data is publication PMC7723054.

Holding throughout (assay): FOREST: bead pull-down of RNA structure library v1, barcode microarray; U1A/LIN28A: 20 mM HEPES pH 7.5, 80 mM KCl, 20 mM NaCl, 10% glycerol, 2 mM DTT, 0.1 ug/uL BSA, 4 C; BG4/CIRBP/DHX36: 10 mM Tris-HCl pH 7.5, 100 mM KCl (or LiCl),; high values mean tight binding
Assay [1] concerns the target U1A (Homo sapiens, UniProt P09012).
Assay [2] addresses T1, LIN28A (human?, UniProt Q9H9Z2 1-209).
T1 sequence: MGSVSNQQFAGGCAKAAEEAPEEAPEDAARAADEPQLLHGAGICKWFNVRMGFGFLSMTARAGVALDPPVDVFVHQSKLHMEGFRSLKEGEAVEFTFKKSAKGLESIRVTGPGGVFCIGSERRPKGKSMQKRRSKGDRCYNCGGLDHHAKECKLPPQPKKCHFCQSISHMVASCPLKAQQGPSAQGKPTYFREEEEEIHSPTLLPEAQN

Assay [3] deals with T2, CIRBP (Homo sapiens, UniProt Q14011 1-172).
T2 sequence: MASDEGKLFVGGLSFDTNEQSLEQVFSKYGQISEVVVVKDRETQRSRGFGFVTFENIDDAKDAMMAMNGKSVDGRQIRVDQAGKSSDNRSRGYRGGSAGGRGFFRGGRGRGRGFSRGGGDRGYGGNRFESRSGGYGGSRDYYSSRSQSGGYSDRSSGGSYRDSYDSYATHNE

The target of assay [4] is T3, DHX36 (Homo sapiens, UniProt Q9H2U1 1-1008).
T3 sequence: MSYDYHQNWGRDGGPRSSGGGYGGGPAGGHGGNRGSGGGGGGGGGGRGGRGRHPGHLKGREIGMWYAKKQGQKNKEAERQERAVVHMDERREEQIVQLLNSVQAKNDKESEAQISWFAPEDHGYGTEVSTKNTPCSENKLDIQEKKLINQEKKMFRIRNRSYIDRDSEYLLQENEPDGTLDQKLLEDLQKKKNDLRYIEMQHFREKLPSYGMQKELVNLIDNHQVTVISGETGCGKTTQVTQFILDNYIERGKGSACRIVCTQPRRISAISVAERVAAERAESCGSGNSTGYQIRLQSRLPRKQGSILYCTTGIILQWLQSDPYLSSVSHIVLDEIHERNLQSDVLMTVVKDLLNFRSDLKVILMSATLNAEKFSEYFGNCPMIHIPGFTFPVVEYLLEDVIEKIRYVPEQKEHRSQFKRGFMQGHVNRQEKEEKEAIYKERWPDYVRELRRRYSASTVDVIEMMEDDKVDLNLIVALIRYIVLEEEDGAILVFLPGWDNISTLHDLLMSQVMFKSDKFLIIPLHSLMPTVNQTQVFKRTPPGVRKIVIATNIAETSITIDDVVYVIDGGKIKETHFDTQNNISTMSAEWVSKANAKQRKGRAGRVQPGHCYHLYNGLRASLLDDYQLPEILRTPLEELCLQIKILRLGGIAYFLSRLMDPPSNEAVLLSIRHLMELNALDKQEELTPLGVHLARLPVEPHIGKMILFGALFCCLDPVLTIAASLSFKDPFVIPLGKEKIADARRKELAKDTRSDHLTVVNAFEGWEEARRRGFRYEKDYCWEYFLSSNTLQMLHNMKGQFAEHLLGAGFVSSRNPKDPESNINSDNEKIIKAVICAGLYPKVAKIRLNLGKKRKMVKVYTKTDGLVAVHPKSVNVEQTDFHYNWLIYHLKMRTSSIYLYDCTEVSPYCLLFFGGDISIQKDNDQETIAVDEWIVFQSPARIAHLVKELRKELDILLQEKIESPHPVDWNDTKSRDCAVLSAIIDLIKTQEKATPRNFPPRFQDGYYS

The other results are listed elsewhere or left out.

B1: hsa-mir-103b-2 (structured_RNA)
RNA: GGGAAGUACCGCGAAAGGAAACCUUGUUGGUGUACGAAGUUUCAGCUGCUUGACCUGAAUGCUACAAGGCAGCUGAAGCUUCGUGCAC
On to B1, for which the binding signal is 0.474 z-score in assay [1], -0.514 z-score in assay [2], -0.954 z-score in assay [3] and -0.805 z-score in assay [4].

B2: hsa-mir-3934 (structured_RNA)
RNA: GGGAAGCUAGAUACGCCACCCGUUGGAUGGUGUACGAAGUUUCAGCGGCAGGAGGCAGUGAAGUAACUUGCGCUGAAGCUUCGUGCAC
Consider B2, for which the binding signal in assay [1] is 0.47 z-score; in assay [2], 0.639 z-score; in assay [3] it was -0.0978 z-score; in assay [4], 0.174 z-score.

B3: hsa-mir-5699 (structured_RNA)
RNA: GGGACCUUAUAACCAGCAAGUCCAAAACGGUGUACGAAGUUUCAGCCAAGAGGUGUGAGCCACACACACGCCUGGCCUCCUGGCUGAAGCUUCGUGCAC
As to B3, the binding signal in assay [1] was 2.1 z-score; in assay [2], 0.908 z-score; in assay [3] it was -0.365 z-score; in assay [4], 1.25 z-score.

B4: hsa-mir-224 (structured_RNA)
RNA: GGGACCACGGGUAGGAACAUAGCAAGCUGGUGUACGAAGUUUCAGCCGUUUAGUAGAUGAUUGUGCAUUGUUUCAAAAUGGCUGAAGCUUCGUGCAC
With B4, the binding signal was 0.454 z-score in assay [1], -1.15 z-score in assay [2], 0.00907 z-score in assay [3] and -0.92 z-score in assay [4].

B5: hsa-mir-7974 (structured_RNA)
RNA: GGGAACAAGUGAGGCGGUACUUAAAAUAGGUGUACGAAGUUUCAGCACCACCCAGGCCUUAUGGCUUCAUAGCUGAAGCUUCGUGCAC
Turning to B5, the binding signal in assay [1] was 0.455 z-score; in assay [2], 0.507 z-score; in assay [3] it was 0.384 z-score; in assay [4], -1.21 z-score.

B6: hsa-mir-4758 (structured_RNA)
RNA: GGGAAGGCGUGUGAGACCCUAUAAUCUGGGUGUACGAAGUUUCAGCGCUGGAGUAAGGGCACGCCCGGGGCUGCGCUGAAGCUUCGUGCAC
As to B6, the binding signal in assay [1] was 0.449 z-score; in assay [2] it was 0.301 z-score; in assay [3], -0.416 z-score; in assay [4] it was -0.392 z-score.

B7: hsa-mir-2682 (structured_RNA)
RNA: GGGACAGGCUCCUCGUGAAAAGAGUCCAGGUGUACGAAGUUUCAGCGACGUCCAAUCUCUUUGGGACGCCGCUGAAGCUUCGUGCAC
Turning to B7, the binding signal in assay [1] was 0.45 z-score; in assay [2] it was -0.17 z-score; in assay [3], -0.562 z-score; in assay [4], -0.478 z-score.

B8: hsa-mir-4700 (structured_RNA)
RNA: GGGACAAUACCACCAUGCGAUUCCUAAGGGUGUACGAAGUUUCAGCGUGUCCUGAAAUUCACAGGACUGGCUGAAGCUUCGUGCAC
Turning to B8, the binding signal in assay [1] was 0.462 z-score; in assay [2], -0.318 z-score; in assay [3], 0.388 z-score; in assay [4] it was -0.764 z-score.

B9: hsa-mir-520f (structured_RNA)
RNA: GGGAAAUGCCAGCCAUGCUGCGGAUAUCGGUGUACGAAGUUUCAGCGCUUUCUGUGGUCAGAAAGAAAAGCAAGUGCUGAAGCUUCGUGCAC
Regarding B9, the binding signal in assay [1] came out at 0.457 z-score; in assay [2] it was 0.336 z-score; in assay [3] it was 1.35 z-score; in assay [4] it was 0.364 z-score.

B10: hsa-mir-521-1 (structured_RNA)
RNA: GGGACGGGUAUCGUUUGUCACGCCUAGAGGUGUACGAAGUUUCAGCCUUUCUGUUGUCUAAAAGAAAAGAACGGCUGAAGCUUCGUGCAC
B10: the binding signal in assay [1] is 0.448 z-score; in assay [2], 0.00803 z-score; in assay [3], -0.621 z-score; in assay [4] it was 0.235 z-score.

B11: hsa-mir-3686 (structured_RNA)
RNA: GGGAAACAGGGCAUCGGGCGAGUCUUAUGGUGUACGAAGUUUCAGCAGAUCACUUUUCUGCACUGGACAGUGAUCUGCUGAAGCUUCGUGCAC
In the case of B11, the binding signal is 0.455 z-score in assay [1], -0.237 z-score in assay [2], 0.549 z-score in assay [3] and -0.0395 z-score in assay [4].

B12: hsa-mir-4522 (structured_RNA)
RNA: GGGACGCAAUUUGGUCAGGACAUGCAUAGGUGUACGAAGUUUCAGCGAUCCAGCCCAGGCUGGUUCCGCUGACGCUGAAGCUUCGUGCAC
In the case of B12, the binding signal in assay [1] came out at 0.444 z-score; in assay [2] it was 1.34 z-score; in assay [3], 1.38 z-score; in assay [4] it was 0.765 z-score.

B13: hsa-mir-665 (structured_RNA)
RNA: GGGCAUCACAAUACGGAGCCAUGUGCUCGGUGUACGAAGUUUCAGCACCCAGGACUCUUUCAUGACCAGCUGAAGCUUCGUGCAC
Take B13: the binding signal was 0.466 z-score in assay [1], -0.501 z-score in assay [2], -1.81 z-score in assay [3] and 0.338 z-score in assay [4].

B14: hsa-mir-920 (structured_RNA)
RNA: GGGAGGCAAGAGGAACGUCUAUGCGGUCGGUGUACGAAGUUUCAGCGACCUGGAUGUGUAGGAGCUAAGACACACUCCAGGGGGCUGAAGCUUCGUGCAC
With B14, the binding signal in assay [1] stood at 0.473 z-score; in assay [2], 0.785 z-score; in assay [3] it was 0.86 z-score; in assay [4] it was 1.08 z-score.

B15: hsa-mir-6800 (structured_RNA)
RNA: GGGACGUGGAGCAGAACUAAACUUAACUGGUGUACGAAGUUUCAGCGCGGGGUGUGGUGGGGCUGGGGCUGGCCCCCUCCUCACACCUCGCUGAAGCUUCGUGCAC
For B15, the binding signal was 0.473 z-score in assay [1], 0.305 z-score in assay [2], 0.678 z-score in assay [3] and 3.43 z-score in assay [4].

B16: hsa-mir-4667 (structured_RNA)
RNA: GGGAGAGGAGCAUAGGCAUGGAAGCCUCGGUGUACGAAGUUUCAGCGAACCCAAGAAAAGCUGACUUGGAGGUCCCGCUGAAGCUUCGUGCAC
For B16, the binding signal in assay [1] was 0.45 z-score; in assay [2], 1.1 z-score; in assay [3], -0.0182 z-score; in assay [4] it was 1.37 z-score.

B17: hsa-mir-550b-1 (structured_RNA)
RNA: GGGAGUGAUCGUUAGACAAUUAGCAGUAGGUGUACGAAGUUUCAGCAAGACACUAUCUUACAACAACAGGGCUCUUGCUGAAGCUUCGUGCAC
Turning to B17, the binding signal in assay [1] stood at 0.456 z-score; in assay [2], 1.26 z-score; in assay [3] it was 0.668 z-score; in assay [4], 0.0263 z-score.

B18: hsa-mir-6745 (structured_RNA)
RNA: GGGAAAUAUGGCCCAUCGCUAUGCGUCCGGUGUACGAAGUUUCAGCCCUAGUGGCUAGCCCUGGGUCUAGCAGCCUAUGGCAGUGUCUGGUAAACACUGGUGGAGUCCUGGGGCUGAAGCUUCGUGCAC
On to B18, for which the binding signal in assay [1] was 0.488 z-score; in assay [2], 0.434 z-score; in assay [3], -0.53 z-score; in assay [4], 1.05 z-score.

B19: hsa-mir-1538 (structured_RNA)
RNA: GGGACUGCUUAGAUAAGGAAACGCACCCGGUGUACGAAGUUUCAGCGCCUCGCUUCCUGCCGGCGCGGCGCUGAAGCUUCGUGCAC
As to B19, the binding signal in assay [1] came out at 0.482 z-score; in assay [2] it was 0.195 z-score; in assay [3], 0.822 z-score; in assay [4], 0.287 z-score.

B20: hsa-mir-541 (structured_RNA)
RNA: GGGAAUAGAGGCACGAACUGAACUUAGUGGUGUACGAAGUUUCAGCCCCACUCCAAAGUUCACAGAAUGGGUGGGCUGAAGCUUCGUGCAC
Consider B20, for which the binding signal in assay [1] was 2.12 z-score; in assay [2] it was 0.432 z-score; in assay [3] it was 0.475 z-score; in assay [4] it was -0.445 z-score.

B21: hsa-mir-6084 (structured_RNA)
RNA: GGGAAGAACUACGGGCAUAACGCAGUUUGGUGUACGAAGUUUCAGCCGGAGCCUCGCAGGGUCGGGCUCGGGCUCCCUAACCGUCUCCGCUUCUUCGCUGAAGCUUCGUGCAC
B21: the binding signal in assay [1] is 0.456 z-score; in assay [2] it was 0.115 z-score; in assay [3], -0.672 z-score; in assay [4], 0.479 z-score.

B22: hsa-mir-5582 (structured_RNA)
RNA: GGGAAUAUCGCUGUCGCCCCGACUUACUGGUGUACGAAGUUUCAGCUAUAGCUACAUCAGUUAUAACUAUAUCAGUUAAAGCUGAAGCUUCGUGCAC
On to B22, for which the binding signal in assay [1] is 0.456 z-score; in assay [2], 0.19 z-score; in assay [3] it was -0.414 z-score; in assay [4], -0.619 z-score.
